Results: ChEMBL document CHEMBL5058646 (2022)

Chains of the proteins cited; added tags and fusions are not shown. Lines headed by an entry give the natural chain unless they say otherwise; changes in a name come on top.
UniProt Q9Y243: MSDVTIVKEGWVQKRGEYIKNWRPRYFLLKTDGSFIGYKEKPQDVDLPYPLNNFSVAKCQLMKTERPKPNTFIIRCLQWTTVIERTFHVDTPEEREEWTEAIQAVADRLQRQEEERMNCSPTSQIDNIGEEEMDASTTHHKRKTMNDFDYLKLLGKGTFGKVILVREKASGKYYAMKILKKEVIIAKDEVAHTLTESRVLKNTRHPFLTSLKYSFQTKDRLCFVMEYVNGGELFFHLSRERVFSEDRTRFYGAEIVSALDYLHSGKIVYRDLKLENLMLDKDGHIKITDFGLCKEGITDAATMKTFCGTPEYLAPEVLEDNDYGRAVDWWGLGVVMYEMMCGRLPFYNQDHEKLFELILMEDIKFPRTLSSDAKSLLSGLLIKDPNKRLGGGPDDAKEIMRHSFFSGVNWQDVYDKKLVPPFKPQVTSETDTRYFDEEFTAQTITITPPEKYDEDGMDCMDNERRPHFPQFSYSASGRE

Key:
[1] = target: T1, Protein archease (Homo sapiens) (UniProt Q8IWT0); conditions: SUD4
T1 sequence (whole entry): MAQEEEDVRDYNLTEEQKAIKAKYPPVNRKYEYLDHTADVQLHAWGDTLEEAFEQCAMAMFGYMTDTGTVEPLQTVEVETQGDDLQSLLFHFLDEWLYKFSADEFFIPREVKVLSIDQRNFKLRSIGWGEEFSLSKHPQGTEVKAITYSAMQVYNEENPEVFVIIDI

[2] = target: T2, Zinc finger and BTB domain-containing protein 11 (Homo sapiens) (UniProt O95625); conditions: OCI-Ly1
T2 sequence (whole entry): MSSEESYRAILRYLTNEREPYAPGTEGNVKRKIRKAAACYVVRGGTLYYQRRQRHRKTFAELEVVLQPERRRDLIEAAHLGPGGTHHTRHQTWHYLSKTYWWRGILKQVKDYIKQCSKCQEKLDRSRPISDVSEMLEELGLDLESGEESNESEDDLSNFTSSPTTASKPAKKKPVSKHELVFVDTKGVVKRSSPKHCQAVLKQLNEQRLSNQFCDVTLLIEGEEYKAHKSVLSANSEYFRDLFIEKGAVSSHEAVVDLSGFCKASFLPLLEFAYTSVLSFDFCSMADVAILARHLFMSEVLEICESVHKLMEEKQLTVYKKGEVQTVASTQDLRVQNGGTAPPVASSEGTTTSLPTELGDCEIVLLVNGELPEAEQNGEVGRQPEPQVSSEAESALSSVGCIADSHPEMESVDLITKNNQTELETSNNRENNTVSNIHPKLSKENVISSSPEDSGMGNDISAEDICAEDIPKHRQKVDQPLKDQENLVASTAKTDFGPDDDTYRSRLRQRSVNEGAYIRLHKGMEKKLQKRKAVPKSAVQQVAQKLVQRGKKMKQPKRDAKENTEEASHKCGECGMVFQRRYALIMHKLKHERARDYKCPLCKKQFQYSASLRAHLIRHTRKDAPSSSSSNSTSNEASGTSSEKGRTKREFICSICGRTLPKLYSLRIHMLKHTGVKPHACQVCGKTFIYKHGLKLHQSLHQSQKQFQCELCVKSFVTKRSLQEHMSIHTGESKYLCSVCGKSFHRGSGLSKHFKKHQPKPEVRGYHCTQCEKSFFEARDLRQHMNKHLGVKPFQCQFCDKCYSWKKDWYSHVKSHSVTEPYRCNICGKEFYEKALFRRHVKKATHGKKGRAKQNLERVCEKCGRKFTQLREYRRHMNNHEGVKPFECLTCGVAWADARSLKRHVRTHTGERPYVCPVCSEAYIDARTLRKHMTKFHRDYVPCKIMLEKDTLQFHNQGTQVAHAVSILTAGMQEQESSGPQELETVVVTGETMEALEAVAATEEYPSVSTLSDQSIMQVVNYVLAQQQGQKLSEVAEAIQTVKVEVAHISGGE

[3] = target: RAC-gamma serine/threonine-protein kinase (Homo sapiens) (UniProt Q9Y243); conditions: Compound concentration 20.0 uM
[4] = target: T3, Zinc finger and BTB domain-containing protein 43 (Homo sapiens) (UniProt O43298); conditions: SUD4
T3 sequence (whole entry): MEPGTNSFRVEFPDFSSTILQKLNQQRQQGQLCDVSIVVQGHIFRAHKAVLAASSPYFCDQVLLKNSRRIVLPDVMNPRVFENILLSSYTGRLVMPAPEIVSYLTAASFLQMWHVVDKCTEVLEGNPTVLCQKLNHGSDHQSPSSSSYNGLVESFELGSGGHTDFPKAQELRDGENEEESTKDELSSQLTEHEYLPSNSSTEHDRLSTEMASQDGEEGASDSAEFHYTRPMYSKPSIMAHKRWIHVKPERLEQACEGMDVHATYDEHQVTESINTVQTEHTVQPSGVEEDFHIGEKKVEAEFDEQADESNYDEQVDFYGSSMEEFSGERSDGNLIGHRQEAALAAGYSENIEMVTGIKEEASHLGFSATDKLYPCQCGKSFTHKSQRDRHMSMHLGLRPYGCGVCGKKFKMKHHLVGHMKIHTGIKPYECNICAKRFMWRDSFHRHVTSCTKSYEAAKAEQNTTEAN

[5] = target: T4, Zinc finger and BTB domain-containing protein 2 (Homo sapiens) (UniProt Q8N680); conditions: SUD4
T4 sequence (whole entry): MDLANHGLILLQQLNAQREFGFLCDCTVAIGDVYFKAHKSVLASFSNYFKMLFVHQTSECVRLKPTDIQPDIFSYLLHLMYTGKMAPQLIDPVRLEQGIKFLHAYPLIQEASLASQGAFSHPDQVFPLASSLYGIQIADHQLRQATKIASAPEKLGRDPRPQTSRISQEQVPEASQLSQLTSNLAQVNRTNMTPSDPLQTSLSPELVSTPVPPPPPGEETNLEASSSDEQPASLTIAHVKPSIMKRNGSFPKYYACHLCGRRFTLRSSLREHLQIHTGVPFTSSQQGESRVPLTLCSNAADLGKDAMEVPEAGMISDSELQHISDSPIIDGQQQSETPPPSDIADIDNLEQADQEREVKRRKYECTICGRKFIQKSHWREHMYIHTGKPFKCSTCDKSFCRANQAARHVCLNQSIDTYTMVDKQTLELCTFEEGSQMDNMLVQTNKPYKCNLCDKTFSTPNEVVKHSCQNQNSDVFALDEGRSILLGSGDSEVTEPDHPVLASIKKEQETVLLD

- Normalized abundances for DMSO [1]: 1430
- Normalized abundances for compound [1]: 1540
- Normalized abundances for DMSO [2]: 366
- Normalized abundances for compound [2]: 364
- Tm [3]: 49 °C
- Normalized abundances for DMSO [4]: 643
- Normalized abundances for compound [4]: 661
- Normalized abundances for DMSO [5]: 676
- Normalized abundances for compound [5]: 751
SMILES: C[C@@H]1CN(c2ncc(Cl)c(Nc3ccc4c(c3)n(CCC(C)(C)O)c(=O)n4C)n2)C[C@H](C)C1(F)F
